Assay: Consistency and homogeneity of the formulation after cryo-processing (observation)
Format: physicochemical
Conditions: Example 4: 30% in 100% fish oil, 4 cycles, 20 impacts per second
Protocol: Fish oil was cured to a film with the use of heat.
It was processed in a Spex Certiprep cryogrinder for 8 cycles, each cycle lasting 2.0 minutes and with a 2.0 minute between-cycle cool down to maintain the system at cryogenic temperatures.

In the case of “d-alpha-tocopheryl polyethylene glycol succinate [Vitamin E TPGS]”, the “consistency of resulting formulation” value was “highly viscous upon standing and was extremely shear thinning”.

— patent publication US20100233231A1, “USE OF CRYOGENIC PROCESSING TO OBTAIN A SUBSTANTIALLY-THICKENED FORMULATION” (priority 2009, published 2010)
